Apparent affinities of Ab-14 variants for a coronavirus HR2 peptide

From the AlphaSeq antibody data of Engelhart et al. 2022 (doi:10.1038/s41597-022-01779-4), copy in the FLAb collection.

Antigen: PDVDLGDISGINAS, a 14-residue peptide of the SARS-CoV-2 spike HR2 region.

Parent: Ab-14, a human scFv built as VH, the linker GGGGSGGGGSGGGGS, VL. Only the CDRs of the light chain vary.
VH: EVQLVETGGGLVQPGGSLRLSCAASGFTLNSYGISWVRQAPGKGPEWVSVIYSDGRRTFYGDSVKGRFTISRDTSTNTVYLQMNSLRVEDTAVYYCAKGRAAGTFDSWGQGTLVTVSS
VL: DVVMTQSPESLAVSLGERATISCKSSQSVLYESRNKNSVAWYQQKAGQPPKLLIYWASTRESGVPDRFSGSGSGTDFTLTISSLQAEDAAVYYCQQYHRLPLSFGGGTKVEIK

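The parent was found by panning a naive human phage display library on the peptide. Library AAYL50 holds single substitutions and randomly drawn double and triple substitutions in the CDRs. Affinity was read by AlphaSeq, a pooled yeast mating assay with surface-displayed partners. After mating in shaken culture at 30 °C for 16 h, diploids were selected and their barcode pairs sequenced. The ratio of observed to expected reads was calibrated, replicate by replicate, on BCL2-family standards whose Kd was known from biolayer interferometry. There are three technical replicates.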

Positions count from residue 1 of the parent VL; R60S puts S in place of R. Numbers give log10(Kd / nM), so 0 is 1 nM and 3 is 1 µM. Smaller is tighter. The mean shown is taken over the replicates in which the pair was detected. "n.d." means that the variant was in the library but no mating with the target was seen in that replicate; the authors take this as a sign of poor binding, and no number exists. For reference, the parent read 0.65 as the reference entry and 1.68 as a member of this library. Background: pairings of library AAYL50 with three empty control strains gave a value in 18% of cases (median 4.19, 5th percentile 2.99). Values in that range, when seen in few replicates, are hard to tell from nonspecific mating.

changes,log10 Kd (nM) by replicate,mean log10 Kd (nM)
R60S Q96L S103L,3.32 / n.d. / 2.17,2.75
S38L E61N Q95C,n.d. / n.d. / n.d.,n.d.
T59P S62A Y97Q,n.d. / 4.03 / n.d.,4.03
Y31P L100N,n.d. / n.d. / n.d.,n.d.
Q27L E61M,0.73 / 0.84 / 0.83,0.80
S26P K36N N37R,0.49 / 0.42 / 0.59,0.50
E32Y L100T P101F,n.d. / 4.08 / n.d.,4.08
S26Q S28K R34Q,1.84 / 1.90 / 2.12,1.95
S28I A40G Y97M,n.d. / n.d. / n.d.,n.d.
P101L L102T,1.05 / 1.03 / 1.17,1.08
S33E A40D S58H,n.d. / 2.84 / n.d.,2.84
N35C K36A A57I,n.d. / n.d. / n.d.,n.d.
Q27G V29F Q95P,0.93 / 0.97 / 1.09,1.00
S28T W56Q S62P,-0.08 / 0.23 / 0.08,0.08
S26Y S58H Q95N,-0.02 / 0.35 / 0.08,0.13
S25H V29S L30R,n.d. / n.d. / n.d.,n.d.
S28N Y97A L100E,0.39 / 0.72 / 0.59,0.56
S26C R60D E61K,n.d. / 4.66 / n.d.,4.66
Q27I R34A S38A,-0.40 / 0.28 / -0.23,-0.12
L30H Y97S H98E,1.36 / 1.98 / 1.93,1.76

The remaining entries, values ahead:

log10 Kd (nM) by replicate,mean log10 Kd (nM),changes
3.75 / 2.90 / 4.10,3.58,S33T R60C Q96E
n.d. / n.d. / 4.36,4.36,V39N S58E T59R
n.d. / n.d. / 4.11,4.11,S25N A40H L102Q
n.d. / n.d. / n.d.,n.d.,V39N Q96G L102P
n.d. / n.d. / n.d.,n.d.,S28A R34H S58I
n.d. / n.d. / n.d.,n.d.,Y31L R60K Y97L
3.89 / n.d. / n.d.,3.89,R60E S62H H98K
n.d. / n.d. / n.d.,n.d.,N35G W56N T59M
n.d. / n.d. / n.d.,n.d.,V29E A40P
3.05 / 2.40 / 2.70,2.72,W56V R99F L102S
0.89 / 1.06 / 1.07,1.01,Q27K S28E H98N
n.d. / n.d. / n.d.,n.d.,S28Y L102R
n.d. / 5.09 / n.d.,5.09,L30S V39W
-0.09 / 0.19 / -0.06,0.01,S25I S28Q Y31K
n.d. / n.d. / n.d.,n.d.,K24Y N37V Q96C
n.d. / n.d. / n.d.,n.d.,S25K E32K
3.52 / n.d. / n.d.,3.52,Q95T L100P P101K
n.d. / n.d. / n.d.,n.d.,Q27D L102D
1.37 / 1.51 / 1.64,1.51,S33A S58Q
n.d. / 3.44 / n.d.,3.44,V39S Q96C H98D
0.33 / 0.61 / 0.51,0.49,K24Q W56N R99G

The opening 3 entries, copied out:

changes,log10 Kd (nM) by replicate,mean log10 Kd (nM)
R60S Q96L S103L,3.32 / n.d. / 2.17,2.75
S38L E61N Q95C,n.d. / n.d. / n.d.,n.d.
T59P S62A Y97Q,n.d. / 4.03 / n.d.,4.03